Our source for the IC50 values is ChEMBL document CHEMBL1139498, “Discovery of potent, orally available vanilloid receptor-1 antagonists. Structure-activity relationship of N-aryl cinnamides” (J Med Chem, 2005).

Protein sequences, listed by entry. Tags and fused reporters are not part of them.
UniProt Q8NER1, whole entry: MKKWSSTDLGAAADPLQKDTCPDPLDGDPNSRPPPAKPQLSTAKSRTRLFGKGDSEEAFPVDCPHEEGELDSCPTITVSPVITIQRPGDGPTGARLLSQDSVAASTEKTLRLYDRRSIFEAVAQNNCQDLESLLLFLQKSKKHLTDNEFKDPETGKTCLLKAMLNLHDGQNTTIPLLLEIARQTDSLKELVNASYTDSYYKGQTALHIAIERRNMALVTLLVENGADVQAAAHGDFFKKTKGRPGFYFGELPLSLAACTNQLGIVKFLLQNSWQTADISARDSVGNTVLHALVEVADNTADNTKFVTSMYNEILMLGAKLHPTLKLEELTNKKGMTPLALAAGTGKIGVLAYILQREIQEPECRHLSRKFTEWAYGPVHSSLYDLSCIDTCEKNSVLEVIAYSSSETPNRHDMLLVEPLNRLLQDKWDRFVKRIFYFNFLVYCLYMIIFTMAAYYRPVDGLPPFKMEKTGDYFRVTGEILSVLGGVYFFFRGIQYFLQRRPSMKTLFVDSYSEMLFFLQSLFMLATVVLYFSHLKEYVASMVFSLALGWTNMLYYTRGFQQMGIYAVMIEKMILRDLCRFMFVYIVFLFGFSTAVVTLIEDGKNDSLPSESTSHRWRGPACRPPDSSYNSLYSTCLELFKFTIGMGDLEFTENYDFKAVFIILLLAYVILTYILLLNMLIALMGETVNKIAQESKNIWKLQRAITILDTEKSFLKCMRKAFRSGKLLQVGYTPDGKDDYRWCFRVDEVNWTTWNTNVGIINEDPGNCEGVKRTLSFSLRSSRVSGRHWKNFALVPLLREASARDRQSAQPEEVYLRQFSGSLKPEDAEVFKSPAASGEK

Usually IC50 stands for the concentration that gives 50% inhibition.

In this assay the target is Transient receptor potential cation channel subfamily V member 1 (Homo sapiens, UniProt Q8NER1). Briefly: Inhibition of capsaicin-induced calcium uptake by transient receptor potential vanilloid type 1 expressed in CHO cells. Format: functional, cell-based.

Regarding `CC(C)(C)c1ccc(/C=C/C(=O)Nc2ccc3c(c2)OCCO3)cc1` (stereo in doubt; 34), the IC50 worked out at 1200 nM. For the compound `CC(C)(C)c1ccc(/C=C/C(=O)Nc2ccc3cccnc3c2)cc1`, the 50% inhibitory concentration (IC50) turned out to be 1.1 nM. For the compound `C/C(=C\C(=O)Nc1ccc2c(c1)OCCO2)c1ccc(C(C)(C)C)cc1`, the IC50 came out at 39 nM. On to `CC(C)(C)c1ccc(/C=C/C(=O)Oc2ccc3c(c2)OCCO3)cc1`, for which the half-inhibitory concentration (IC50) came to 670 nM.
